The text below walks through data of the NIST ThermoML archive (doi:10.1016/j.jct.2005.01.002).

The conditions of the series: 101.33 kPa, Liquid.

Numbers after ± are expanded uncertainties.

Turning to `CCCCOCCCC` [dibutyl ether], the mass density turned out to be 764.08 ± 0.62 kg/m3 (298.15 K); 750.92 ± 0.63 kg/m3 (313.15 K); 737.68 ± 0.65 kg/m3 (328.15 K); 724.25 ± 0.66 kg/m3 (343.15 K); 710.54 ± 0.68 kg/m3 (358.15 K).

What is called mass density is mass per unit of volume.
